Test results taken from patent US20050289662A1, “Reporter system for plants” (published 2005).

Test system: GSH1-LUC-E9 construct in the BrC line
Test: GSH1 promoter induction in leaves of GSH1-LUC-E9 plants, imaging with N2 cooled CCD camera
Conditions: leaves of (t2) plants treated for 30 min with 100 μM, H2O as control

Substance	induction of the GSH1 promoter (LUC imaging)
cupper	induction of the promoter
cadmium	induction of the promoter
